Measurements from PubChem BioAssay AID686978 (National Center for Advancing Translational Sciences (NCATS), 2013).
Only a part is listed here, and it is no random draw. Records with an inconclusive call do not appear. Calls of active or inactive are those of the source. The call rests on the fitted dose curve; in most records, active means well fitted inhibition curve with a large enough effect; inconclusive means small, poorly fitted or top-dose-only effect; inactive means flat fitted curve, though single readings scatter.

Assay: qHTS for Inhibitors of human tyrosyl-DNA phosphodiesterase 1 (TDP1): qHTS in cells in absence of CPT; further: nearly all actives have a fitted effect of over 55% in size
Conditions: DT40 Tdp1-/- hTDP1 cells, no CPT, ATP luminescence, 48 h; series mostly up to 46.2 µM; activity change, negative = growth inhibition: at the top concentration
On the % scale 0 is the no-effect control and ±100 the full control effect; potency means the concentration at half of the fitted maximal effect.

SMILES | activity change, negative = growth inhibition | Potency
CP(=S)(Nn1cnnc1)Oc1ccccc1 (stereo not given) | inactive: -9.31% | 
CP(=O)(Nc1ccccc1Br)Oc1ccccc1 (stereo not given) | inactive: -10.6% | 
COc1ccccc1OP(C)(=O)Nc1ccccc1 (stereo not given) | inactive: -1.94% | 
O=[N+]([O-])c1cc([N+](=O)[O-])c(O)c([N+](=O)[O-])c1.c1ccc(Oc2ccncc2)cc1 | inactive: -10.4% | 
CN(C)CCS | inactive: -28.1% | 
CCOP(C)(=S)SCC(=O)NC(C)C(=O)O (stereo not given) | inactive: 0.0815% | 
CP(=O)(Nc1ccccn1)Oc1ccc(Cl)cc1 (stereo not given) | inactive: -4.25% | 
CP(=O)(Nc1ccc(SC(F)(F)F)cc1)Oc1ccc(Cl)cc1 (stereo not given) |  | active: 4.11 µM
CP(=O)(Oc1ccccc1)OC(c1ccccc1)C(F)(F)F (stereo not given) | inactive: -24.5% | 
CP(=O)(NC(=O)Nc1ccccc1)Oc1ccccc1 (stereo not given) | inactive: -1.39% | 
CCc1ccc(OP(C)(=O)N2CCN(c3ccc([N+](=O)[O-])cc3)CC2)cc1 (stereo not given) |  | active: 14.6 µM
O=[N+]([O-])[O-].[NH4+] | inactive: -1.01% | 
COc1ccccc1-c1ccccn1.O=[N+]([O-])c1cc([N+](=O)[O-])c(O)c([N+](=O)[O-])c1 | inactive: -16.4% | 
CCN(CC)CCCOC(=O)C(O)(c1ccccc1)c1ccccc1 | inactive: 9.82% | 
Cc1cc(C)cc(OP(C)(N)=O)c1 (stereo not given) | inactive: -9.61% | 
COc1ccccc1OP(C)(=O)Nc1cc(Cl)ccc1C (stereo not given) | inactive: -12.6% | 
COc1ccc(OP(C)(=O)Nc2cccc(F)c2)cc1 (stereo not given) | inactive: -43.9% | 
O=[N+]([O-])c1cc([N+](=O)[O-])c(Nc2cccnc2)c([N+](=O)[O-])c1 |  | active: 11.6 µM
O=[N+]([O-])c1ccc2c(c1)C=Nc1ccccc1O2 |  | active: 4.11 µM
Cc1cccc(C)c1OP(C)(N)=O (stereo not given) | inactive: 3.56% | 
O=[N+]([O-])OCC(CO[N+](=O)[O-])(CO[N+](=O)[O-])CO[N+](=O)[O-] | inactive: -11% | 
O=[N+]([O-])c1cccc([N+](=O)[O-])c1 | inactive: 3.33% | 
Cc1ccc(C)c(NP(C)(=O)Oc2ccccc2)c1 (stereo not given) | inactive: -19.4% | 
Cc1cc(C)cc(OP(C)(=O)Nc2ccccn2)c1 (stereo not given) | inactive: 0.382% | 

SMILES | activity change, negative = growth inhibition | Potency
COc1ccccc1OP(C)(=O)Nc1cccc(Br)c1 (stereo not given) | inactive: 3.09% | 
Cc1cc(C)cc(OP(C)(=O)Nc2ccc(C)cc2C)c1 (stereo not given) | inactive: -21.5% | 
O=[N+]([O-])c1cc([N+](=O)[O-])c(-c2cnn(-c3ccccc3)c2)c([N+](=O)[O-])c1 |  | active: 6.51 µM
Cc1nc2ccc3ccccc3c2s1.O=[N+]([O-])c1cc([N+](=O)[O-])c(O)c([N+](=O)[O-])c1 | inactive: -21.7% | 
O=[N+]([O-])c1cc([N+](=O)[O-])c(-n2nnc3ccccc32)c([N+](=O)[O-])c1 | inactive: -2.81% | 
CC(C)N(CCCl)C(C)C | inactive: 7.18% | 
COc1ccccc1OP(C)(=O)Nc1c(C)cccc1C (stereo not given) | inactive: -5.04% | 
COc1ccc(-c2ccccn2)cc1.O=[N+]([O-])c1cc([N+](=O)[O-])c(O)c([N+](=O)[O-])c1 | inactive: 3.86% | 
CCCOc1ccc(NP(C)(=O)Oc2ccc(Cl)cc2)cc1 (stereo not given) | inactive: -18.9% | 
CP(=O)(Nc1ccc(SC(F)(F)F)cc1)Oc1ccccc1 (stereo not given) |  | active: 20.6 µM
CC1CCOC(=O)C=CC=CC(=O)OC2CC3OC4C5OC5(C)CCC4(COC(=O)C1O)C2(C)C31CO1 (stereo not given) |  | active: 0.13 µM
O=[N+]([O-])c1ccc(OP2(=O)COCCO2)cc1 (stereo not given) | inactive: -19.8% | 
Cc1c(C(c2ccc3c(c2)OCO3)c2c(C)n(C)n(-c3ccccc3)c2=O)c(=O)n(-c2ccccc2)n1C.O=[N+]([O-])c1cc([N+](=O)[O-])c(O)c([N+](=O)[O-])c1 | inactive: 11.4% | 
COc1ccc(OP(C)(=O)Nc2cccc(Br)c2)cc1 (stereo not given) | inactive: -25% | 
CN(C)CCOC(=O)C(O)(c1ccccc1)C1CCCCC1 (stereo not given) | inactive: -0.146% | 
Cc1ccccc1NP(C)(=O)Nc1ccccc1C | inactive: 3.93% | 
CCN(CCCl)Cc1ccccc1C | inactive: -11.4% | 
O=[N+]([O-])c1cc([N+](=O)[O-])c(C(F)(F)F)c([N+](=O)[O-])c1O | inactive: -21.5% | 
CCOP(C)(=S)SCC(=O)NC(C)(CC)C(=O)O (stereo not given) | inactive: -6.97% | 
CCOP(=O)(CC)Oc1ccc([N+](=O)[O-])cc1 (stereo not given) | inactive: -18.9% | 
CP(=O)(Nc1ccccc1F)Oc1ccccc1 (stereo not given) | inactive: -15.4% | 
Cc1c([N+](=O)[O-])cc([N+](=O)[O-])c(Br)c1[N+](=O)[O-] |  | active: 7.31 µM
CCN(CC)CCCOC(=O)C(O)(c1ccccc1)C1CCCCC1 (stereo not given) | inactive: -22.8% | 
CP(=O)(Nc1ccccc1)Oc1ccc(F)cc1 (stereo not given) | inactive: -2.5% | 

SMILES | activity change, negative = growth inhibition | Potency
CCCCCOc1ccc(NP(C)(=O)Oc2ccc(Cl)cc2Cl)cc1 (stereo not given) | inactive: -50.5% | 
Cc1cccc([N+](=O)[O-])c1[N+](=O)[O-] | inactive: -10.7% [at 92.5 µM] | 
CCCCCCCCCCCCCCCC1C[N+](C)(C)CCOP(C)(=O)O1 (stereo not given) |  | active: 13 µM
CP(=O)(OCCOc1ccccc1)OCCOc1ccccc1 | inactive: -3.43% | 
Cc1cc(C)cc(OP(C)(=O)Nc2cccc(C(F)(F)F)c2)c1 (stereo not given) | inactive: -23.7% | 
COc1ccccc1OP(C)(=O)Nc1ccc(C)c(C)c1 (stereo not given) | inactive: -28.6% | 
COc1ccc(OP(C)(=O)Nc2ccccc2Br)cc1 (stereo not given) | inactive: -15% | 
Cc1c(NP(C)(=O)Oc2ccc(C(C)C)cc2)c(=O)n(-c2ccccc2)n1C (stereo not given) | inactive: 1.66% | 
O=[N+]([O-])c1cc([N+](=O)[O-])c(Nc2ccccn2)c([N+](=O)[O-])c1 |  | active: 2.91 µM
CP(=O)(Nc1ccccn1)Oc1ccccc1 (stereo not given) | inactive: 0.246% | 
COc1ccccc1OP(C)(=O)Nc1ccc(C)cc1C (stereo not given) | inactive: -8.95% | 
CCc1ccc(OP(C)(=O)O)cc1 | inactive: -32.2% | 
COc1ccccc1OP(C)(=O)Nc1ccc(Br)cc1 (stereo not given) | inactive: -19.6% | 
COc1ccc(OP(C)(=O)Nc2ccccn2)cc1 (stereo not given) | inactive: 4.37% | 
CN(C)CCOC(=O)C(O)(c1ccccc1)C1CCCC1 (stereo not given) | inactive: -2.9% | 
COc1ccccc1OP(C)(=O)Nc1ccccc1Br (stereo not given) | inactive: -17.1% | 
CC(C)(C)c1ccc(OP(C)(=O)O)cc1 | inactive: -13.2% | 
CP(=O)(Nc1ccc(Cl)cc1)Oc1ccc(F)cc1 (stereo not given) | inactive: -16.5% | 
CN(C)C(=O)c1c([N+](=O)[O-])cc([N+](=O)[O-])cc1[N+](=O)[O-] |  | active: 2.91 µM
COc1ccccc1OP(C)(=O)Nc1c(C)n(C)n(-c2ccccc2)c1=O (stereo not given) | inactive: 6.45% | 
OCCSCCO | inactive: -26.9% | 
CC(C)OP(=O)(F)OC(C)C | inactive: -7.25% | 
